Tested on: human maximum recommended daily dose, FDA database
Test: DSSTox (FDAMDD) FDA Maximum (Recommended) Daily Dose Database
Settings: TherapeuticCategory: antineoplastic; hits give low values

With O[C@@H]([C@H](O)[C@H](O)CNCCCl)[C@H](O)CNCCCl the maximum recommended daily dose (mmol/kg-bw/day) was 0.0109.
